Measured values from ChEMBL document CHEMBL1155471, “Discovery of potent, balanced and orally active dual NK1/NK3 receptor ligands” (Bioorg Med Chem Lett, 2010).

Chains of the proteins cited; added tags and fusions are not shown.
UniProt P25103, whole entry: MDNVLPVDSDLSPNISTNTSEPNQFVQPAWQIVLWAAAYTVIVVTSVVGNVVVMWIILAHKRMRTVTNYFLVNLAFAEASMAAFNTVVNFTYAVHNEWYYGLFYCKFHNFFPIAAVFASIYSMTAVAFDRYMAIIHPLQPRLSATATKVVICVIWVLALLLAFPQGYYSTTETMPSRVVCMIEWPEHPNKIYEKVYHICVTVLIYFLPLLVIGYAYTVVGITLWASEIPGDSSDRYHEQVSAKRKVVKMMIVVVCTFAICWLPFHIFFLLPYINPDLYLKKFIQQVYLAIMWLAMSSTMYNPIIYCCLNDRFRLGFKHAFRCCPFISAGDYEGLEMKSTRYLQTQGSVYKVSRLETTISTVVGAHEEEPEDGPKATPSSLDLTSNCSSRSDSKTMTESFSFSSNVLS

Biological target: Substance-P receptor (Homo sapiens, UniProt P25103)
Experiment: Displacement of [3H]substance P from human NK1 receptor expressed in CHO cells
Assay type: cell-based

| SMILES | Ki [nM] |
| --- | --- |
| CN(C(=O)C(C)(C)c1cc(C(F)(F)F)cc(C(F)(F)F)c1)c1cnc(N2C[C@@H](O)C[C@H]2CO)cc1-c1ccccc1Cl | 0.51 |
| CN(C(=O)C(C)(C)c1cc(C(F)(F)F)cc(C(F)(F)F)c1)c1cnc(N2C[C@H](O)C[C@H]2CO)cc1-c1ccccc1Cl | 0.61 |
